Values quoted from earlier work in patent US20080153758A1, “Compounds Which Inhibits Protein Prenylation E.G. Geranylgeransferse or Farnesyltransferase Inhibitors for Treating Parkinson's Disease” (priority 2004, published 2008).
pIC50: −log10 of the molar value.

By UniProt entry, the sequences of proteins in these tests, tags left out.
UniProt P49356, whole entry: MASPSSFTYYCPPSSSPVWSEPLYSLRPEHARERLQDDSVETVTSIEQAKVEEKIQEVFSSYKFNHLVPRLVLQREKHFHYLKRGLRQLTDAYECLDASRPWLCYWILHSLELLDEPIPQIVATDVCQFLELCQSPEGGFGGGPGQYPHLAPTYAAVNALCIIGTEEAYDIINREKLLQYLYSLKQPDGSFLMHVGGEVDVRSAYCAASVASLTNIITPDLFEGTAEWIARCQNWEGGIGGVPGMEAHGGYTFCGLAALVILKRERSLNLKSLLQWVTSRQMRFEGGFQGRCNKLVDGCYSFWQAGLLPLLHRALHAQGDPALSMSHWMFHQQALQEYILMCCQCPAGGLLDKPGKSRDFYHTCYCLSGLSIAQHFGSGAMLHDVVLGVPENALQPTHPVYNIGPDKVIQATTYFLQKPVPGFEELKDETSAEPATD
UniProt P53609, whole entry: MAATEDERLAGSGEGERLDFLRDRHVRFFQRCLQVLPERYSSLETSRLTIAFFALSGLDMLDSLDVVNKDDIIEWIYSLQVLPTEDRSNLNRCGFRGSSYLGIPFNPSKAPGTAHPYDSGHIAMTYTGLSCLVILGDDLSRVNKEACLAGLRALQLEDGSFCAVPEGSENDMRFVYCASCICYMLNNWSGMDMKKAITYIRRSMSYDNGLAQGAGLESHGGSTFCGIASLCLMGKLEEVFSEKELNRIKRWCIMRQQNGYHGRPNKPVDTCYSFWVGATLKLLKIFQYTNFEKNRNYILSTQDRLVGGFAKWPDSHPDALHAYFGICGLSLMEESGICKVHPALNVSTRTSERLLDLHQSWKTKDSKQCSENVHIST

Legend:
[1] = biological target: FTase (Homo sapiens, UniProt P49354+P49356); conditions: read-out: FTase IC50; cited from earlier work
[2] = biological target: GGTase I (Homo sapiens, UniProt P49354+P53609); conditions: read-out: GGTase I / PGGTase-I IC50; cited from earlier work

SMILES	pIC50 [1]	pIC50 [2]
Cn1cncc1C(OCc1ccc(C#N)cn1)c1ccc(C#N)c(-c2cccc3ccccc23)c1 (stereo not drawn)	9.40	–
Cn1cncc1C(OCc1ccc(C#N)cc1)c1ccc(C#N)c(-c2cccc3ccccc23)c1 (stereo not drawn)	9.52	6.93
